Reference: ChEMBL document CHEMBL1156061, “Design and synthesis of substituted nicotinamides as inhibitors of soluble epoxide hydrolase” (Bioorg Med Chem Lett, 2009)

Protein sequences, listed by entry. Tags and fused reporters are not part of them. Lines headed by an entry give the natural chain unless they say otherwise; changes in a name come on top.
UniProt P80299: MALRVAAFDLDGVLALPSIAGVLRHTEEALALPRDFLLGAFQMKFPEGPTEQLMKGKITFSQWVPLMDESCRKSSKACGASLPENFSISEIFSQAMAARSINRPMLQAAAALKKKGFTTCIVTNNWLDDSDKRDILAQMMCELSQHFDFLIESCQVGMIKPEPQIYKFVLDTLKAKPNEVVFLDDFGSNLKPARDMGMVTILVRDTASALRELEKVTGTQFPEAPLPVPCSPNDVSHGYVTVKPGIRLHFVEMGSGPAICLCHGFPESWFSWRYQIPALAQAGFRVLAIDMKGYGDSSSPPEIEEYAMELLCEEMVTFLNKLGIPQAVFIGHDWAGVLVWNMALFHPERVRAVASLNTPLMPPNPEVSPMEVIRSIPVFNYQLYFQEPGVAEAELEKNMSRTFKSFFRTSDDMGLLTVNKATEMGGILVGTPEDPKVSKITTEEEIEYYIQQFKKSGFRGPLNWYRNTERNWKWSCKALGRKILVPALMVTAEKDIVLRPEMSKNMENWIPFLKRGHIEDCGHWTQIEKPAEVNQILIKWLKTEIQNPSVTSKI

Target: Bifunctional epoxide hydrolase 2 (Rattus norvegicus, UniProt P80299)
Assay: Inhibition of rat sEH

## O=C(NCc1ccccc1Cl)c1ccc(OCCC(F)(F)F)nc1
  IC50: 22 nM
